{"source": "patent US4650801A", "about": "“Anti-cancer compositions for delivering 5-fluorouracil” (Taiho Pharmaceutical Company, Ltd., priority 1978, dated 1987)", "system": "sarcoma 180", "format": "in vivo", "experimental": "The anti-cancer compositions of this invention are tested in mice by the following methods to determine acute toxicity, anti-cancer effect and therapeutic index\nMale mice of ICR strain weighing 22±1 g are used, 5 mice in each group. A 5-fluorouracil (a) and uracil derivative (b) in the proportions listed in Tables 1-16 are suspended in a 5% solution of gum arabic to prepare a suspension, which is forcibly orally administered to each mouse through a tube at a dose of 1 ml/100 g. Over the following period of three weeks the mice are checked every day for poisoning, body weight and mortality. The LD50 is determined according to the up-and-down method 3 weeks after the administration.\nTissues of sarcoma 180, 2×10^6, are subcutaneously transplanted in the back of male mice of ICR strain (6 mice in each group). A 5-fluorouracil (a) and uracil derivative (b) in the proportions listed in Tables 1-16 are suspended in a 5% solution of gum arabic to prepare a suspension. Twenty-four hours after the transplantation and during the following seven consecutive days the suspension is orally given to the animal once every day.\nThe LD50 and ED50 values obtained above are used to determine the therapeutic index (LD50 /ED50).", "note": "Where “and” joins values, the source holds several entries; their conditions need not be identical. Identical values can stand only once. Like-named read-outs stand apart in the source and are kept apart here."}
{"compound": "O=c1[nH]c(=O)n(C2CCCO2)cc1F", "note": "(centres unmarked) [Compound 5, 1-(2-Tetrahydrofuryl)-5-fluorouracil]", "values": [{"measurement": "Therapeutic Index (LD50/ED50)", "setting": "(b) = 1(2-Tetrahydrofuryl)uracil, (b)/(a) mol ratio 1", "result": 6.8}, {"measurement": "Therapeutic Index (LD50/ED50)", "setting": "(b) = 1(2-Tetrahydrofuryl)uracil, (b)/(a) mol ratio 2", "result": 14.9}, {"measurement": "Therapeutic Index (LD50/ED50)", "setting": "(b) = 1(2-Tetrahydrofuryl)uracil, (b)/(a) mol ratio 10", "result": 11.1}, {"measurement": "Therapeutic Index (LD50/ED50)", "setting": "(b) = 1Acetyluracil, (b)/(a) mol ratio 1", "result": 10.2}, {"measurement": "Therapeutic Index (LD50/ED50)", "setting": "(b) = 1Acetyluracil, (b)/(a) mol ratio 2", "result": 10.7}, {"measurement": "Therapeutic Index (LD50/ED50)", "setting": "(b) = 1Acetyluracil, (b)/(a) mol ratio 5", "result": 8.9}, {"measurement": "Therapeutic Index (LD50/ED50)", "setting": "(b) = 1Cyclohexylcarbamoyluracil, (b)/(a) mol ratio 0.5", "result": 6.8}, {"measurement": "Therapeutic Index (LD50/ED50)", "setting": "(b) = 1Cyclohexylcarbamoyluracil, (b)/(a) mol ratio 2", "result": 11.2}, {"measurement": "Therapeutic Index (LD50/ED50)", "setting": "(b) = 1Cyclohexylcarbamoyluracil, (b)/(a) mol ratio 5", "result": 11.9}, {"measurement": "Therapeutic Index (LD50/ED50)", "setting": "(b) = 1n-Hexylcarbamoyluracil, (b)/(a) mol ratio 0.5", "result": 7.8}, {"measurement": "Therapeutic Index (LD50/ED50)", "setting": "(b) = 1n-Hexylcarbamoyluracil, (b)/(a) mol ratio 2", "result": 10.3}, {"measurement": "Therapeutic Index (LD50/ED50)", "setting": "(b) = 1n-Hexylcarbamoyluracil, (b)/(a) mol ratio 10", "result": 11.3}, {"measurement": "Therapeutic Index (LD50/ED50)", "setting": "(b) = 2'-Deoxycytidine, (b)/(a) mol ratio 1", "result": 8.6}, {"measurement": "Therapeutic Index (LD50/ED50)", "setting": "(b) = 2'-Deoxycytidine, (b)/(a) mol ratio 2", "result": 11.5}, {"measurement": "Therapeutic Index (LD50/ED50)", "setting": "(b) = 2'-Deoxycytidine, (b)/(a) mol ratio 20", "result": 8.6}, {"measurement": "Therapeutic Index (LD50/ED50)", "setting": "(b) = 2'-Deoxyuridine, (b)/(a) mol ratio 0.5", "result": 9.9}, {"measurement": "Therapeutic Index (LD50/ED50)", "setting": "(b) = 2'-Deoxyuridine, (b)/(a) mol ratio 2", "result": 17.2}, {"measurement": "Therapeutic Index (LD50/ED50)", "setting": "(b) = 2'-Deoxyuridine, (b)/(a) mol ratio 10", "result": 16.8}, {"measurement": "Therapeutic Index (LD50/ED50)", "setting": "(b) = 3Benzoyluracil, (b)/(a) mol ratio 1", "result": 7.6}, {"measurement": "Therapeutic Index (LD50/ED50)", "setting": "(b) = 3Benzoyluracil, (b)/(a) mol ratio 2", "result": 16.8}, {"measurement": "Therapeutic Index (LD50/ED50)", "setting": "(b) = 5Bromo-2'-deoxyuridine, (b)/(a) mol ratio 1", "result": 10.5}, {"measurement": "Therapeutic Index (LD50/ED50)", "setting": "(b) = 5Bromo-2'-deoxyuridine, (b)/(a) mol ratio 2", "result": 10.5}, {"measurement": "Therapeutic Index (LD50/ED50)", "setting": "(b) = 5Bromo-2'-deoxyuridine, (b)/(a) mol ratio 10", "result": 12.9}, {"measurement": "Therapeutic Index (LD50/ED50)", "setting": "(b) = 5Bromouracil, (b)/(a) mol ratio 1", "result": 10.4}, {"measurement": "Therapeutic Index (LD50/ED50)", "setting": "(b) = 5Bromouracil, (b)/(a) mol ratio 2", "result": 14.6}, {"measurement": "Therapeutic Index (LD50/ED50)", "setting": "(b) = 5Iodouracil, (b)/(a) mol ratio 1", "result": 9.4}, {"measurement": "Therapeutic Index (LD50/ED50)", "setting": "(b) = 5Iodouracil, (b)/(a) mol ratio 2", "result": 9.9}, {"measurement": "Therapeutic Index (LD50/ED50)", "setting": "(b) = 5Iodouracil, (b)/(a) mol ratio 5", "result": 9.3}, {"measurement": "Therapeutic Index (LD50/ED50)", "setting": "(b) = Cytidine, (b)/(a) mol ratio 1", "result": 8.9}, {"measurement": "Therapeutic Index (LD50/ED50)", "setting": "(b) = Cytidine, (b)/(a) mol ratio 2", "result": 11.4}, {"measurement": "Therapeutic Index (LD50/ED50)", "setting": "(b) = Cytidine, (b)/(a) mol ratio 20", "result": 9.5}, {"measurement": "Therapeutic Index (LD50/ED50)", "setting": "(b) = Cytosine, (b)/(a) mol ratio 1", "result": 8.1}, {"measurement": "Therapeutic Index (LD50/ED50)", "setting": "(b) = Cytosine, (b)/(a) mol ratio 2", "result": 12.4}, {"measurement": "Therapeutic Index (LD50/ED50)", "setting": "(b) = Cytosine, (b)/(a) mol ratio 20", "result": 10.2}, {"measurement": "Therapeutic Index (LD50/ED50)", "setting": "(b) = Orotic acid, (b)/(a) mol ratio 1", "result": 7.1}, {"measurement": "Therapeutic Index (LD50/ED50)", "setting": "(b) = Orotic acid, (b)/(a) mol ratio 2", "result": 11.1}, {"measurement": "Therapeutic Index (LD50/ED50)", "setting": "(b) = Orotic acid, (b)/(a) mol ratio 20", "result": 11.3}, {"measurement": "Therapeutic Index (LD50/ED50)", "setting": "(b) = Thymidine, (b)/(a) mol ratio 2", "result": 6.8}, {"measurement": "Therapeutic Index (LD50/ED50)", "setting": "(b) = Thymidine, (b)/(a) mol ratio 5", "result": 10.1}, {"measurement": "Therapeutic Index (LD50/ED50)", "setting": "(b) = Thymidine, (b)/(a) mol ratio 10", "result": 8.5}, {"measurement": "Therapeutic Index (LD50/ED50)", "setting": "(b) = Thymine, (b)/(a) mol ratio 1", "result": 8.1}, {"measurement": "Therapeutic Index (LD50/ED50)", "setting": "(b) = Thymine, (b)/(a) mol ratio 2", "result": 10.1}, {"measurement": "Therapeutic Index (LD50/ED50)", "setting": "(b) = Thymine, (b)/(a) mol ratio 10", "result": 13.5}, {"measurement": "Therapeutic Index (LD50/ED50)", "setting": "(b) = Uridine, (b)/(a) mol ratio 0.5", "result": 6.2}, {"measurement": "Therapeutic Index (LD50/ED50)", "setting": "(b) = Uridine, (b)/(a) mol ratio 2", "result": 11.5}, {"measurement": "Therapeutic Index (LD50/ED50)", "setting": "(b) = Uridine, (b)/(a) mol ratio 10", "result": 14.7}, {"measurement": "Therapeutic Index (LD50/ED50)", "setting": "(b)/(a) mol ratio 0 (alone)", "result": "5.9 and 6.5"}]}
